For 25 molecules, Kd, koff and kon results are on record in patent publication US11472877 (Alector, dated 2022).

By UniProt entry, the sequences of proteins in these tests, tags left out. Residues count along the entry.
UniProt Q9NP99, 21-205 limits assumed: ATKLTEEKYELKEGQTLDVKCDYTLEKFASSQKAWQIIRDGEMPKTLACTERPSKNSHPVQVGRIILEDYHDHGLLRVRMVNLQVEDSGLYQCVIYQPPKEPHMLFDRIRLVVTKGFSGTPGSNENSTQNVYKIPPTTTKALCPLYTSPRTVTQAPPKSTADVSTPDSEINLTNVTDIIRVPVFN

The chains are these.
B1: T1-59 Fab (Fab, V domains shown)
VH: QVQLQESGPGLVKPSETLSLTCAVSGYSISSGYYWAWIRQPPGKGLEWIGSIYHSGSTYYNPSLKSRVTISVDTSKNQFSLKLSSVTAADTAVYYCARDLGGYEGAFDPWGQGTLVTVSS
VL: not shown
notes: Fab of T1-59
B2: T1-41 Fab (Fab, V domains shown)
VH: not shown
VL: DIQLTQSPSSVSASVGDRVTITCRASQDISSWLAWYQQKPGKAPKLLIYAASSLQSGVPSRFSGSGSGTDFTLTISSLQPEDFATYYCQQAVIHPPYTFGGGTKVEIK
notes: Fab of T1-41
B3: T1-44 Fab (Fab, V domains shown)
VH: QVQLVQSGAEVKKPGASVKVSCKASGYTFTSYYMHWVRQAPGQGLEWMGVINPSGGSTSYAQKFQGRVTMTRDTSTSTVYMELSSLRSEDTAVYYCAREGSGYDESMDVWGQGTTVTVSS
VL: not shown
notes: Fab of T1-44
B4: T1-5 Fab (Fab, V domains shown)
VH: QVQLVQSGAEVKKPGASVKVSCKASGYTFTSYYMHWVRQAPGQGLEWMGVINPSGGSTSYAQKFQGRVTMTRDTSTSTVYMELSSLRSEDTAVYYCARESDGIDSYFDYWGQGTLVTVSS
VL: not shown
notes: Fab of T1-5
B5: T1-10 Fab (Fab, V domains shown)
VH: QVQLVQSGAEVKKPGASVKVSCKASGYTFTSYYMHWVRQAPGQGLEWMGIINPSGGSTSYAQKFQGRVTMTRDTSTSTVYMELSSLRSEDTAVYYCAREGSGSWETLDVWGQGTMVTVSS
VL: not shown
notes: Fab of T1-10
B6: T1-8 Fab (Fab, V domains shown)
VH: QVQLVQSGAEVKKPGASVKVSCKASGYTFTSYYMHWVRQAPGQGLEWMGIINPSGGSTSYAQKFQGRVTMTRDTSTSTVYMELSSLRSEDTAVYYCAREVSMTAASLDVWGQGTMVTVSS
VL: not shown
notes: Fab of T1-8
B7: T1-48 Fab (Fab, V domains shown)
VH: QVQLVQSGAEVKKPGASVKVSCKASGYTFTSYYMHWVRQAPGQGLEWMGVINPGGGSTSYAQKFQGRVTMTRDTSTSTVYMELSSLRSEDTAVYYCAREAGQTSSALDVWGQGTMVTVSS
VL: not shown
notes: Fab of T1-48
B8: T1-45 Fab (Fab, V domains shown)
VH: QVQLVQSGAEVKKPGASVKVSCKASGYTFTSYYMHWVRQAPGQGLEWMGVINPSGGSTSYAQKFQGRVTMTRDTSTSTVYMELSSLRSEDTAVYYCAREGSGYDESMDVWGQGTTVTVSS
VL: not shown
notes: Fab of T1-45
B9: T1-46 Fab (Fab, V domains shown)
VH: QVQLVQSGAEVKKPGASVKVSCKASGYTFTSYYMHWVRQAPGQGLEWMGVINPSGGSTSYAQKFQGRVTMTRDTSTSTVYMELSSLRSEDTAVYYCAREGSGYDESMDVWGQGTTVTVSS
VL: not shown
notes: Fab of T1-46
B10: T1-38 Fab (Fab, V domains shown)
VH: QVQLVESGGGVVQPGRSLRLSCAASGLTFSSYGMHWVRQAPGKGLEWVAVISYDGSNKYYADSVKGRFTISRDNSKNTLYLQMNSLRAEDTAVYYCARERGTYYYASGWANWGQGTLVTVSS
VL: not shown
notes: Fab of T1-38
B11: T1-69 Fab (Fab, V domains shown)
VH: QVQLVQSGAEVKKPGASVKVSCKASGYTFTSYGISWVRQAPGQGLEWMGWISAYNGNTNYAQKLQGRVTMTTDTSTSTAYMELRSLRSDDTAVYYCARGAGMYDGSPLGMDVWGQGTTVTVSS
VL: DIQMTQSPSSVSASVGDRVTITCRASQGISSWLAWYQQKPGKAPKLLIYAASNLQSGVPSRFSGSGSGTDFTLTISSLQPEDFATYYCQQATAHPPTFGGGTKVEIK
notes: Fab of T1-69
B12: T1-4 Fab (Fab, V domains shown)
VH: QVQLVQSGAEVKKPGSSVKVSCKASGGTFSSYAISWVRQAPGQGLEWMGGIIPIFGTANYAQKFQGRVTITADESTSTAYMELSSLRSEDTAVYYCARHYYYGYAYFDLWGRGTLVTVSS
VL: EIVMTQSPATLSVSPGERATLSCRASQSVSSNLAWYQQKPGQAPRLLIYGASTRATGIPARFSGSGSGTEFTLTISSLQSEDFAVYYCQQFNNHPITFGGGTKVEIK
notes: Fab of T1-4
B13: T1-9 Fab (Fab, V domains shown)
VH: QVQLVQSGAEVKKPGASVKVSCKASGYTFTSYYMHWVRQAPGQGLEWMGIINPSGGSTSYAQKFQGRVTMTRDTSTSTVYMELSSLRSEDTAVYYCAREAGYDISSAFDIWGQGTMVTVSS
VL: not shown
notes: Fab of T1-9
B14: T1-6 Fab (Fab, V domains shown)
VH: QVQLVQSGAEVKKPGASVKVSCKASGYTFTSYYMHWVRQAPGQGLEWMGVINPSGGSTSYAQKFQGRVTMTRDTSTSTVYMELSSLRSEDTAVYYCARESGHSYVSSFDPWGQGTLVTVSS
VL: not shown
notes: Fab of T1-6
B15: T1-53 Fab (Fab, V domains shown)
VH: QVQLVQSGAEVKKPGASVKVSCKASGYTFTSYYIHWVRQAPGQGLEWMGIINPSGGSTSYAQKFQGRVTMTRDTSTSTVYMELSSLRSEDTAVYYCARESGYHVSTAFDIWGQGTMVTVSS
VL: not shown
notes: Fab of T1-53
B16: T1-55 Fab (Fab, V domains shown)
VH: QVQLVQSGAEVKKPGASVKVSCKASGYTFTSYYMHWVRQAPGQGLEWMGVINPSGGSTSYAQKFQGRVTMTRDTSTSTVYMELSSLRSEDTAVYYCARGADYYAGFDYWGQGTLVTVSS
VL: not shown
notes: Fab of T1-55
B17: T1-58 Fab (Fab, V domains shown)
VH: QLQLQESGPGLVKPSETLSLTCTVSGGSISSSSYYWGWIRQPPGKGLEWIGSIYYSGSTYYNPSLKSRVTISVDTSKNQFSLKLSSVTAADTAVYYCARQEYGDGYFDLWGRGTLVTVSS
VL: not shown
notes: Fab of T1-58
B18: T1-1 Fab (Fab, V domains shown)
VH: QVQLVQSGAEVKKPGSSVKVSCKASGGTFSSYAISWVRQAPGQGLEWMGGIIPIFGTANYAQKFQGRVTITADESTSTAYMELSSLRSEDTAVYYCARGQGSDHYYYGMDVWGQGTTVTVSS
VL: not shown
notes: Fab of T1-1
B19: T1-43 Fab (Fab, V domains shown)
VH: QVQLVQSGAEVKKPGASVKVSCKASGYTFTSYYMHWVRQAPGQGLEWMGIINPSGGSTSYAQKFQGRVTMTRDTSTSTVYMELSSLRSEDTAVYYCAREAGNYYDIESAFDIWGQGTMVTVSS
VL: not shown
notes: Fab of T1-43
B20: T1-49 Fab (Fab, V domains shown)
VH: QVQLVQSGAEVKKPGASVKVSCKASGYTFTSYYMHWVRQAPGQGLEWMGIINPSGGSTSYAQKFQGRVTMTRDTSTSTVYMELSSLRSEDTAVYYCAREAGSWLISTAFDIWGQGTMVTVSS
VL: not shown
notes: Fab of T1-49
B21: T1-50 Fab (Fab, V domains shown)
VH: QVQLVQSGAEVKKPGASVKVSCKASGYTFTSYYMHWVRQAPGQGLEWMGIINPGGGSTSYAQKFQGRVTMTRDTSTSTVYMELSSLRSEDTAVYYCAREAGTMSSAFDIWGQGTMVTVSS
VL: not shown
notes: Fab of T1-50
B22: T1-42 Fab (Fab, V domains shown)
VH: QVQLVESGGGVVQPGRSLRLSCAASGFTFSSYGMHWVRQAPGKGLEWVAVIWYDGSNKGYADSVKGRFTISRDNSKNTLYLQMNSLRAEDTAVYYCARELMVTSGGWLYGMDVWGQGTTVTVSS
VL: EIVMTQSPATLSVSPGERATLSCRASQSVSSNLAWYQQKPGQAPRLLIYGASTRATGIPARFSGSGSGTEFTLTISSLQSEDFAVYYCQQYNVHPPRTFGGGTKVEIK
notes: Fab of T1-42
B23: T1-61 Fab (Fab, V domains shown)
VH: QVQLQESGPGLVKPSETLSLTCAVSGYSISSGYYWGWIRQPPGKGLEWIGSIYHSGSTYYNPSLKSRVTISVDTSKNQFSLKLSSVTAADTAVYYCARHDDYLSSFDPWGQGTLVTVSS
VL: not shown
notes: Fab of T1-61
B24: T1-5 (antibody, IgG1, V domains shown)
VH: QVQLVQSGAEVKKPGASVKVSCKASGYTFTSYYMHWVRQAPGQGLEWMGVINPSGGSTSYAQKFQGRVTMTRDTSTSTVYMELSSLRSEDTAVYYCARESDGIDSYFDYWGQGTLVTVSS
VL: not shown
notes: huIgG1; also called TI-5; ADI-19071
B25: T1-50 (antibody, IgG1, V domains shown)
VH: QVQLVQSGAEVKKPGASVKVSCKASGYTFTSYYMHWVRQAPGQGLEWMGIINPGGGSTSYAQKFQGRVTMTRDTSTSTVYMELSSLRSEDTAVYYCAREAGTMSSAFDIWGQGTMVTVSS
VL: not shown
notes: huIgG1; also called TI-50; ADI-19125

The Kd is the constant that tells how readily two partners part at equilibrium. For orientation: koff means the first-order rate constant of dissociation. A high value points to a short-lived complex. What is called kon is the rate constant with which the complex forms. Lower therefore signals slower complex formation.

One assay addresses T1, Human TREM1-Fc (human, UniProt Q9NP99 21-205, limits assumed).
T1 construct: not shown: Fc part
Put plainly: Fab on human TREM1-Fc, monovalent; method not stated.
B1: the Kd stood at 20.7 nM, the off-rate constant (koff) worked out at 0.00466 s⁻¹ and the kon was determined as 225000 M⁻¹ s⁻¹.
In turn, B2 displayed a Kd of 8.76 nM, a koff of 0.00523 s⁻¹ and a kon of 597000 M⁻¹ s⁻¹.
For B3, in that order: 29.6 nM, 0.00633 s⁻¹ and 214000 M⁻¹ s⁻¹.
In turn, B4 yielded a Kd of 148 nM, a koff of 0.00802 s⁻¹ and a kon of 54300 M⁻¹ s⁻¹.
In the same order, the values of B5 are 6.07 nM, 0.000634 s⁻¹ and 104000 M⁻¹ s⁻¹.
The molecule B6 displayed a Kd of 65.5 nM, a koff of 0.00775 s⁻¹ and a kon of 118000 M⁻¹ s⁻¹.
For B7, in that order: 34.1 nM, 0.00446 s⁻¹ and 131000 M⁻¹ s⁻¹.
Turning to B8, binding was characterised by a dissociation constant (Kd) of 9.06 nM, the koff worked out at 0.00146 s⁻¹ and the kon was 161000 M⁻¹ s⁻¹.
For B9, in that order: 10.8 nM, 0.00143 s⁻¹ and 133000 M⁻¹ s⁻¹.
B10: the dissociation constant Kd was 14.9 nM, the koff worked out at 0.00667 s⁻¹ and the kon stood at 447000 M⁻¹ s⁻¹.
In turn, B11 came in with a Kd of 26.1 nM, a koff of 0.00875 s⁻¹ and a kon of 335000 M⁻¹ s⁻¹.
For B12, in that order: 47 nM, 0.00851 s⁻¹ and 181000 M⁻¹ s⁻¹.
On to B13, for which the affinity, expressed as Kd, was 59.6 nM; the koff worked out at 0.00861 s⁻¹; the kon worked out at 145000 M⁻¹ s⁻¹.
In the same order, the values of B14 are 123 nM, 0.013 s⁻¹ and 106000 M⁻¹ s⁻¹.
Consider B15, for which binding was characterised by a dissociation constant (Kd) of 14.1 nM, the koff stood at 0.00175 s⁻¹ and the kon was 124000 M⁻¹ s⁻¹.
In the same order, the values of B16 are 31 nM, 0.00326 s⁻¹ and 105000 M⁻¹ s⁻¹.
B17 registered a Kd of 22.6 nM, a koff of 0.00514 s⁻¹ and a kon of 227000 M⁻¹ s⁻¹.
Take B18: the Kd worked out at 38.5 nM, the koff is 0.00664 s⁻¹ and the kon amounted to 172000 M⁻¹ s⁻¹.
Take B19: the Kd was 10.7 nM, the dissociation rate constant (koff) came to 0.00138 s⁻¹ and the on-rate constant (kon) stood at 129000 M⁻¹ s⁻¹.
In the same order, the values of B20 are 5.39 nM, 0.000828 s⁻¹ and 154000 M⁻¹ s⁻¹.
In the same order, the values of B21 are 28 nM, 0.00391 s⁻¹ and 140000 M⁻¹ s⁻¹.
Consider B22, for which the affinity, expressed as Kd, was 16.8 nM; the koff stood at 0.0108 s⁻¹; the on-rate constant (kon) amounted to 644000 M⁻¹ s⁻¹.
For B23, binding was put at a Kd of 111 nM, the off-rate constant (koff) turned out to be 0.00751 s⁻¹ and the kon was found to be 67700 M⁻¹ s⁻¹.

Another assay deals with human TREM1 (human, UniProt Q9NP99 21-205, limits assumed). Put plainly: IgG, monovalent; method and antigen form not stated.
As for B24, the Kd is 72.6 nM, the koff was 0.0115 s⁻¹ and the kon came to 158000 M⁻¹ s⁻¹.
In the same order, the values of B25 are 32.8 nM, 0.00502 s⁻¹ and 153000 M⁻¹ s⁻¹.
